These are literature values, as cited in patent US6505562B1, “Gas generator composition and molding thereof” (dated 2003).

For the data set the following is noted: species and route not given.

As to `[N-]=[N+]=[N-]`, the “acute toxicity LD50” value is 27 mg/kg.
